Reference: ChEMBL document CHEMBL1137158, “Rational drug design and synthesis of a selective opioid receptor antagonist on the basis of the accessory site concept” (2004)

How the values were obtained:
[1] = organism: Mus musculus; experiment: Effect (1 ug) on antinociception induced by U-50,488H(50 ug) in mouse tail flick test upon i.c.v. treatment; Vehicle value = 48+/-10%
[2] = organism: Mus musculus; experiment: Effect (1 ug) on antinociception induced by DAMGO(20 ng) in mouse tail flick test upon i.c.v. treatment; Vehicle value = 71+/-10%
[3] = organism: Mus musculus; experiment: Effect (1 ug) on antinociception induced by DPDPE(10 ug) in mouse tail flick test upon i.c.v. treatment; Vehicle value = 59+/-11%

For `O=C1[C@H]2C[C@@]34C=C[C@]2(OCN1CCc1ccccc1)[C@@H]1Oc2cc(O)cc5c2[C@@]13CCN(CC1CC1)[C@@H]4C5`, the Activity [1] was 35%, the Activity [2] was 59% and the Activity [3] was 68%.
